This is an account of results in ChEMBL document CHEMBL5036322 (J Med Chem, 2021).

For the assay, the system named is MB002. Description: Antiproliferative activity against human MB002 cells harboring TP53 mutation at codon 141 TGC-TTC assessed as reduction in cell viability measured after 3 days by CellTiter-Glo assay. The settings on record: time 3.0 day.

Structures are written as SMILES. Active and inactive are the calls of the source. The calls are words filed in the database; no cut-off is given here.

Turning to `Cc1ccc(NC(=O)NCc2ccc3c(c2)CN(C2CCC(=O)NC2=O)C3=O)cc1Cl` (stereo unspecified), the outcome was Active.
